One compound from patent publication US10028992B2, “Methods of treating muscular dystrophy” (BOARD OF REGENTS OF THE NEVADA SYSTEM OF HIGHER EDUCATION …, priority 2012, dated 2018) can be followed below.

Only a part of the results on these compounds is given; other tests are left out.

In the assay the test system is α7 integrin promoter. The assay is described as follows: muscle cell-based assay: α7βgal+/− myoblasts/myotubes, LacZ reporter, β-galactosidase cleavage of FDG. Also noted: species or system mouse.

`O=C(NCC1(N2CCOCC2)CCCCC1)c1cc(Br)ccc1Cl` displayed a Score (Table 12 compound data) of 42. In addition, where the note is “curve class number, key not given”, the “Fit Curve Class” value stood at 2.2. Also, the “Fit HillSlope” value (curve fit) amounted to 0.8. The “Fit LogAC50” value (given as log AC50 (negative values)) is listed as −5.05.
